Measured values as given in US20110244506A1, “EGFR DEPENDENT MODULATION OF CHEMOKINE EXPRESSION AND INFLUENCE ON THERAPY AND DIAGNOSIS OF TUMORS AND SIDE EFFECTS THEREOF” (Merck Patent GmbH, priority 2005, published 2011).

Test system: EGFR-dependent signaling cascades, tumor cell lines such as A431
Assay: EGFR-dependent signaling cascades in tumor cell lines
Type: cell-based
Conditions: various tumor cell lines such as A431

COc1cc2ncnc(Nc3ccc(F)c(Cl)c3)c2cc1OCCCN1CCOCC1 [Iressa, gefitinib, reference compound]
EGFR-dependent signaling cascades: interferes with EGFR-dependent signaling cascades
